Reference: article PMC4042408 (ACS chemical biology, 2013)

By UniProt entry, the sequences of proteins in these tests, tags left out. Residues count along the entry.
UniProt P21836, 32-614: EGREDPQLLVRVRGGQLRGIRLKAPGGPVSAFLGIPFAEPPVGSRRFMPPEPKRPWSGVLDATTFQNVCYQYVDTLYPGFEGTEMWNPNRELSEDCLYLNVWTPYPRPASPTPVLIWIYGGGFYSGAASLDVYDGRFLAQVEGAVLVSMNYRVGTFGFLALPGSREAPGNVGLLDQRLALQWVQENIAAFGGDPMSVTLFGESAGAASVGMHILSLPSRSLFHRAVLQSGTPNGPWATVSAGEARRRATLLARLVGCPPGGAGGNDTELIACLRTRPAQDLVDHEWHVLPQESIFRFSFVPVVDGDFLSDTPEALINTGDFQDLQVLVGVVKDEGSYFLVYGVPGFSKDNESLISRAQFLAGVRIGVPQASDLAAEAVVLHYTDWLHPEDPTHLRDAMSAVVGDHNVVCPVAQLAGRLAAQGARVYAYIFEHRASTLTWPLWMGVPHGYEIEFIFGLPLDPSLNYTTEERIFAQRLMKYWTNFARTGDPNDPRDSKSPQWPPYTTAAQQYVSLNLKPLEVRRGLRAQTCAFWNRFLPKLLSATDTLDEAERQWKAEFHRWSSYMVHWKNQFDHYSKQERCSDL

How the values were obtained:
[1] = target: T1, AADAC (Mus musculus, UniProt Q99PG0); assay: Gel-based competitive ABPP; assay type: biochemical
T1 sequence (Q99PG0 1-398): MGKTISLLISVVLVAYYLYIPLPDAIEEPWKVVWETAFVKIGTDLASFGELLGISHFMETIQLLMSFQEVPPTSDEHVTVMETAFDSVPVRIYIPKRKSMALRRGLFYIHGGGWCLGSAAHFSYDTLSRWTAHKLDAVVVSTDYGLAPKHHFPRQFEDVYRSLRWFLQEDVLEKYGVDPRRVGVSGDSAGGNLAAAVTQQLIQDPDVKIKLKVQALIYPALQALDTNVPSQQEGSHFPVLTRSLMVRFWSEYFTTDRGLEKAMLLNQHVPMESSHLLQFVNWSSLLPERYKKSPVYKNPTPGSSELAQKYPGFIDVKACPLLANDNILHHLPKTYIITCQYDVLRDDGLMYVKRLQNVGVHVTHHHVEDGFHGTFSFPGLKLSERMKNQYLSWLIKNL

[2] = target: ACHE (Mus musculus, UniProt P21836); assay: biochemical

## CCOP(=O)(OCC)Oc1nc(Cl)c(Cl)cc1Cl [CPO, chlorpyrifos-oxon]
[1]
  IC50: 0.6 nM
[2]
  IC50: 17 nM
